# B1: EcHfq72 (domain or fragment, Escherichia coli, UniProt P0A6X3 1-72, looked up)
# chain: MAKGQSLQDPFLNALRRERVPVSIYLVNGIKLQGQIESFDQFVILLKNTVSQMVYKHAISTVVPSRPVSHHS
# notes: Hfq, Escherichia coli, N-terminal domain; stop codon inserted after the 72nd codon of Hfq in pET28[EcHfq]; also called EcHfq NTD; NTD alone of EcHfq; source: E. coli BL21(DE3), pET28[EcHfq72], purified (HisTrap, thrombin, Mono S, Superdex 200)
# Biological target: the molecule itself
# Assay: SDS-PAGE stability assay; 1 ug protein in loading buffer with 1% SDS heated at 95 °C for 0 to 300 s, 10% SDS-PAGE, hexamer and monomer bands quantified; hexamer to monomers
protein,measurement,value
B1,half-life of hexamer in 1% SDS at 95 °C,41.5 ± 2.4 s

# Reference: article PMC3477312, “Characterization of Vibrio cholerae Hfq Provides Novel Insights into the Role of the Hfq C-Terminal Region” (Journal of Molecular Biology, 2012)
